Earlier results as cited in patent publication US20260007760A1, “CAMPTOTHECIN DERIVATIVES THAT BIND TO DDX5 PROTEIN AND PRODRUGS THEREOF” (priority 2022, published 2026).

Experiments:
[1] = 0.8 mg/kg to 8.0 mg/kg once every 3 weeks, 22 patients; cited from earlier work
[2] = human, in vivo; cited from earlier work

Enhertu
Dose-limiting toxicity [1]: No dose-limiting toxicity was observed
Dosage discontinuation due to adverse reactions [2]: 35.3%
Dose reduction due to adverse reactions [2]: 23.4%
